Ab-14 light chain CDR variants: yeast mating affinities

Antigen: PDVDLGDISGINAS, a 14-residue peptide of the SARS-CoV-2 spike HR2 region.

The variants keep the heavy chain, the linker and the frameworks of Ab-14 (scFv order VH, a (GGGGS)3 linker, VL).
VH: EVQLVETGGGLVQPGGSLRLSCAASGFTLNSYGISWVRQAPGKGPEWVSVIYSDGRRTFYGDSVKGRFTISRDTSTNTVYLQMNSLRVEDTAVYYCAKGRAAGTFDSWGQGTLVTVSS
VL: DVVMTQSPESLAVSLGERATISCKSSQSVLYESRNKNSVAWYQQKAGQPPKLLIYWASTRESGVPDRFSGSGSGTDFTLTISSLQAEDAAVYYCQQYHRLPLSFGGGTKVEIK

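Phage display of a naive human antibody library on the peptide gave the parent. This is the validation round: designs drawn from the data on random variants, tested in the same kind of assay. Several design methods are mixed in this list. AlphaSeq pools MATa yeast showing the antibodies with MATalpha yeast showing the peptide. Binding brings cells together so that they mate, and sequencing counts the barcode pairs among the diploids. Read counts were normalised to the haploid input and turned into Kd by a linear fit to BCL2-family pairs of known affinity, for each replicate. The assay was run in six technical replicates.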

Substitutions are numbered in sequence along the VL above, starting at 1 (not Kabat). Variants here have at most six changes. Numbers give log10(Kd / nM), so 0 is 1 nM and 3 is 1 µM. Smaller is tighter. The mean shown is taken over the replicates in which the pair was detected. "nd" means that the variant was in the library but no mating with the target was seen in any replicate; the authors take this as a sign of poor binding, and no number exists. The parent sequence was in this pool as ten entries: three were never detected, three once, and four in most replicates, with averages from 0.34 to 2.37. Values of this round are not directly comparable with the first-round values of the same sequences. In the paper, a design with two or fewer of six values counts as a poor binder. Three control strains display no target. For all light chain designs, 4% of the pairings with them gave a signal, with a median of 2.64 and one signal in twenty below 1.59, so weak values seen in few replicates may be background.

| changes | mean log10 Kd (nM) | detected |
|---|---|---|
| V29Y+Y31G+S33K+W56E | 0.35 | 6/6 |
| S25L+S26Q+V29E+L30P+W56N | 0.51 | 6/6 |
| S25I+E32Q+S33A+K36Q+W56S+E61L | 0.38 | 6/6 |
| S25L+S26Q+V29W+W56N+E61L | -0.26 | 6/6 |
| S25L+V29H+S38A+W56E | -0.17 | 6/6 |
| L30K+Y31M+W56E | 0.58 | 6/6 |
| S25V+Y31W+S33M+R34S+P101E | 1.33 | 3/6 |
| K24H+Q27C+W56N+S103N | 0.78 | 6/6 |
| S25V+V29M+W56D+T59Q | 0.25 | 6/6 |
| S25L+V29F+N35M+W56G+T59Q | -0.17 | 6/6 |
| V29W+W56G+T59H | 0.04 | 6/6 |
| E32N+R34E+H98M | 1.21 | 5/6 |
| K36L+W56H | 0.66 | 6/6 |
| S25P+T59I+Y97A | 2.03 | 3/6 |
| Y31F+W56D+R99G | 0.97 | 6/6 |
| V29M+S33E | nd | 0/6 |
| Y31W+W56T+S62R | nd | 0/6 |
| S25M+S26P+V29Q+W56N+T59Q | -0.43 | 6/6 |
| S25I+K36H+A57D+L102I | nd | 0/6 |
| S25I+Y31M+S33W+W56E | -0.13 | 6/6 |
| S25L+V29D+W56H+E61C | -0.21 | 6/6 |
| S25L+S26M+Q27M+V29T+W56N | 2.25 | 6/6 |
| V29N | 2.14 | 6/6 |
| S25L+V29W+S33D+N35V+W56G+T59Q | 0.15 | 6/6 |
| S25L+L30W+E32L+S33E+W56N+T59Y | 0.28 | 6/6 |
| N35T+Q96T+Y97E | nd | 0/6 |
| K36T+E61D | 2.98 | 4/6 |
| E32S+W56Y+L100M | 2.66 | 5/6 |
| V29M+Y31S | 1.80 | 6/6 |
| S25F+S28M+N35T+W56N | 0.72 | 6/6 |
| Y31F+P101N | 2.07 | 4/6 |
| S25V+W56N+Q96D | -0.04 | 6/6 |
| S25L+W56D+S62E | -0.73 | 6/6 |
| S25Q+V29C+Y31C+W56D | 0.47 | 6/6 |
| S25L+S26Q+V29E+W56N+Q96D | -0.01 | 6/6 |
| Q95E+S103E | nd | 0/6 |
| Q27I+V29G+R34G+N35M+W56E | -0.28 | 6/6 |
| S25L+S33D+W56S+T59Q | -0.48 | 6/6 |
| S26Q+Q27A+Y31D+P101W | nd | 0/6 |
| Q27G+V29Q+K36S+W56H+S62L+Q96D | 0.68 | 6/6 |
| S25L+S26E+V29W+W56H+T59Q | 0.22 | 6/6 |
| K36H+N37E+A57G+Q95K | nd | 0/6 |
| S25L+L30M+Y31G+W56N | -0.12 | 6/6 |
| Q27S+N35P+W56M | 1.94 | 5/6 |
| S25L+S58N+P101V+S103C | 0.77 | 4/6 |
| V29E+L30D+W56E | 0.89 | 6/6 |
| V29S+R34G+W56H | -0.21 | 6/6 |
| S25V+E32N+K36V+W56H | -0.20 | 6/6 |
| S25Q+E32T+S33E+W56E | -0.10 | 6/6 |
| S25F+S33E+T59I | 0.79 | 6/6 |
| Q27I+V29Y+E32A+W56E | -0.27 | 6/6 |
| S25L+Q27S+V29E+W56N | 0.41 | 6/6 |
| S28H+K36D+W56N | 0.27 | 6/6 |
| S26P+Y31V+K36G+W56V | nd | 0/6 |
| S25L+S26M+W56N+T59Q | 0.07 | 6/6 |
| S25I+S28P+L30I+K36R | 1.53 | 6/6 |
| Q27P+V29L+R34E+S38A | 1.22 | 6/6 |
| S25V+E32L+R34N+W56S+Q96S | 0.06 | 6/6 |
| S25M+S26P+W56N+T59Q | -0.16 | 6/6 |
| L30G+K36Y+L100T | 1.49 | 6/6 |
| V29W+W56C | 2.25 | 6/6 |
| K36F+N37W+W56G | 1.97 | 5/6 |
| Q27M+S28V+V29Y+W56G | 0.27 | 6/6 |
| R34L+K36Y | 2.26 | 5/6 |
| K24R+L30Y+W56D | 0.74 | 6/6 |
| Q96Y+L100W | nd | 0/6 |
| V29F+R34L+N35W+W56G+T59Q | 0.47 | 6/6 |

The 4 strongest on average among those seen in every replicate, once more:

changes,mean log10 Kd (nM),detected
S25L+W56D+S62E,-0.73,6/6
S25L+S33D+W56S+T59Q,-0.48,6/6
S25M+S26P+V29Q+W56N+T59Q,-0.43,6/6
Q27I+V29G+R34G+N35M+W56E,-0.28,6/6

Reference: Li et al. 2023, doi:10.1038/s41467-023-39022-2. File: FLAb, binding data.